Data taken from ChEMBL document CHEMBL1134106, “Novel heteroaryl replacements of aromatic 3-tetrafluoroethoxy substituents in trifluoro-3-(tertiaryamino)-2-propanols as potent inhibitors of cholesteryl ester transfer protein” (Bioorg Med Chem Lett, 2001).

Target: T1, Cholesteryl ester transfer protein (Homo sapiens, UniProt P11597)
T1 sequence (P11597 whole entry): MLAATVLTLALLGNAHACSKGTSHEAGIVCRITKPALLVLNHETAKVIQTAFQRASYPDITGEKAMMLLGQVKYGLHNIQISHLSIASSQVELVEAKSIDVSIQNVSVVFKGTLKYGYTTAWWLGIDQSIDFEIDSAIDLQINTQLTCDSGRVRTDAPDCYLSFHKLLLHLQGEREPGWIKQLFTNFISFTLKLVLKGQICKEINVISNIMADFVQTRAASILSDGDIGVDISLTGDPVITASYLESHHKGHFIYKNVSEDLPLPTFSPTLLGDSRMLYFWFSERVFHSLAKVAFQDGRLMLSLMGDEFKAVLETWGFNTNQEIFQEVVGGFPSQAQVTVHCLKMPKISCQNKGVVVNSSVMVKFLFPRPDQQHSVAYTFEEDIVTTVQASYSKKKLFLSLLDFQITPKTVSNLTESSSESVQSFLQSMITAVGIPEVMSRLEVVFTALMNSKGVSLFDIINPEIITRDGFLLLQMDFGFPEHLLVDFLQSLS
Assay: In vitro human CETP inhibitory activity assessed by measuring the rate of [3H]cholesteryl ester ([3H]CE) from HDL donor particles to LDL acceptor particles using human serum by serum transfer assay

pIC50: 5.22
Compound: CCOc1cccc(CN(CC(O)C(F)(F)F)c2cccc(Oc3ccccc3)c2)c1 (stereo unspecified)

pIC50: −log10 of the molar value.
